The results in this text go back to US10172843B2, “Piperidine derivatives” (Hoffmann-La Roche Inc., priority 2014, dated 2019).

The chains behind the UniProt entries cited, without tags or fusion partners. Residues count along the entry.
UniProt P25774, 115-331 limits assumed: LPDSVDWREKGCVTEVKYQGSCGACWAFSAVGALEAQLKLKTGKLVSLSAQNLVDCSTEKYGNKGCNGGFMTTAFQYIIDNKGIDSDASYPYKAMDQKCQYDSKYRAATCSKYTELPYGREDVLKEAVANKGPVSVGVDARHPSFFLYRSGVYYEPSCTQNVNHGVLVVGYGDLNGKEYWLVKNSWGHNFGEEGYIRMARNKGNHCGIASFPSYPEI

The assay deals with human Cat S (Homo sapiens (Human), UniProt P25774). Briefly: Cathepsin enzyme inhibition assay (fluorogenic peptide substrate). It is filed as biochemical. Conditions: read-out: CatS IC50, enzyme 1 nM, substrate Z-Val-Val-Arg-AMC, pH 6.5.

In general, IC50 refers to the concentration at which inhibition is half-maximal. As to `Cc1ccc(-c2nc(CN3CCC(n4c(=O)[nH]c5cc(Cl)ccc54)CC3)c(C)[nH]2)cc1`, the IC50 was 4.07 µM.
